In BindingDB's records for doi:10.1021/jm980290i (Research Triangle Institute, 1998):

Assay: Inhibition of [35S]GTP-gamma-S, binding in guinea pig caudate stimulated by SNC80 (Opioid receptor delta 1)

C[C@H]1C2CCCC1(c1cccc(O)c1)CCN2C (stereo partly drawn) [3-((R)-2,9-Dimethyl-2-aza-bicyclo[3.3.1]non-5-yl)-phenol]
Ki: 750 nM
